According to article PMC3640069, “VPPIPP and IPPVPP: Two Hexapeptides Innovated to Exert Antihypertensive Activity” (PLoS ONE, 2013):

Experiment: Blood glucose level of SHR after administration
Assay type: in vivo, rat
Details: 1.5 mg/kg BW; for effect on blood glycometabolism: 3.5 h after administration; for Blood Glucose Concentration: tail blood 3.5 h after administration, mean ± SD, SD
Procedure: To evaluate the effect of the selected tripeptides on glycometablism after administration in vivo, the SHRs were tail bled 3.5 h after administration with the selected tripeptides at a dose of 1.5 mg/kg BW, and blood glucose level was determined by One Touch Ultra test strips using the One Touch Ultra blood Glucose monitoring system (LifeScan, Inc. Milpitas, USA).

Substance | effect on blood glycometabolism | Blood Glucose Concentration
Isoleucine-Proline-Proline-Valine- Proline-Proline [IPPVPP] | no negative impact | 4.20±0.60^a mmol/L
Valine-Proline-Proline-Isoleucine-Proline-Proline [VPPIPP] | no negative impact | 4.30±0.15^a mmol/L

Marks after values point to notes of the source that are not given here.
